Experiment [1] concerns pERK1/2(THR202/TYR204) level in SW620 cell line (KRAS G12V). Put plainly: KRAS G12V pERK assay (HTRF) in SW620 cell line. The following applies: read-out: SW620 pERK IC50; SW620 cells, 2 hrs compound treatment.
The target in experiment [2] is GST-tagged GDP-loaded WT KRAS (amino acids 1-169) (Homo sapiens, UniProt P01116). Put plainly: KRAS WT probe displacement assay (TR-FRET, with G12V assay). The note with it: read-out: KRAS^WT Probe Displacement Assay IC50; Table 2; WT KRAS 3 nM, biotinylated probe 1 60 nM. (Time-resolved FRET reads energy transfer from a long-lived donor to a nearby acceptor.)

The source of these data is patent publication US20250250287A1, “HETEROCYCLIC COMPOUNDS, COMPOSITIONS THEREOF, AND METHODS OF TREATMENT THEREWITH” (BeiGene Switzerland GmbH, priority 2022, published 2025).

The structures appear in SMILES notation.

Turning to `C#Cc1c(F)ccc2cc(O)cc(-c3nc4c5c(nc(OC[C@@]67CCCN6C[C@H](F)C7)nc5c3F)N3CC[C@H]3CCO4)c12`, the 50% inhibitory concentration (IC50) in experiment [1] turned out to be 171 nM; in experiment [2] it was 5.3 nM.
Turning to `Nc1cc(Cl)c(C(F)(F)F)c(-c2nc3c4c(nc(OC[C@@]56CCCN5C[C@H](F)C6)nc4c2F)N2CCCCC2CCO3)c1` (stereo partly drawn), in experiment [2], the IC50 is 6.8 nM.

In general, IC50 refers to the concentration needed to halve the response being measured.
